This test deals with Kappa-type opioid receptor (Cavia porcellus) (UniProt P41144). As to the kind of experiment: Intrinsic activity at kappa opioid receptor in Oryctolagus cuniculus (rabbit) vas deferens assessed as inhibition of electrically evoked contraction after 15 min.

Sequences of proteins named here, by UniProt entry; tags and fusion partners are left off. A change or cut given only in a name is not applied to a line headed by its entry.
UniProt P41144: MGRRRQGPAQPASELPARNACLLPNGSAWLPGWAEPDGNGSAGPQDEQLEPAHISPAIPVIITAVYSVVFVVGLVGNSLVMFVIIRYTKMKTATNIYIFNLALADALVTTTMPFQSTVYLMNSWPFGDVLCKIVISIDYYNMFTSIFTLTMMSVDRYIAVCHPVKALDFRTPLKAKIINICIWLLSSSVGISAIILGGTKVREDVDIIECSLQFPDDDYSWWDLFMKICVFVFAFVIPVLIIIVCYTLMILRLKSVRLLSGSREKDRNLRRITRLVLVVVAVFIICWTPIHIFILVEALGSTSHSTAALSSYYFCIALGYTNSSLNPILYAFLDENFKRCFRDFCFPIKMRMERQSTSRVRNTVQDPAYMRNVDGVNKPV

As for `Oc1ccc2c(c1)[C@@]13CCCC[C@@]1(O)[C@@H](C2)N(CC1CCC1)CC3`, the pD2 was 6.49.
